Experimental data from patent US9550000B2, “Compositions, methods, and systems for the synthesis and use of imaging agents” (Lantheus Medical Imaging, Inc., priority 2011, dated 2017).

The chains behind the UniProt entries cited, without tags or fusion partners.
UniProt P23975, whole entry: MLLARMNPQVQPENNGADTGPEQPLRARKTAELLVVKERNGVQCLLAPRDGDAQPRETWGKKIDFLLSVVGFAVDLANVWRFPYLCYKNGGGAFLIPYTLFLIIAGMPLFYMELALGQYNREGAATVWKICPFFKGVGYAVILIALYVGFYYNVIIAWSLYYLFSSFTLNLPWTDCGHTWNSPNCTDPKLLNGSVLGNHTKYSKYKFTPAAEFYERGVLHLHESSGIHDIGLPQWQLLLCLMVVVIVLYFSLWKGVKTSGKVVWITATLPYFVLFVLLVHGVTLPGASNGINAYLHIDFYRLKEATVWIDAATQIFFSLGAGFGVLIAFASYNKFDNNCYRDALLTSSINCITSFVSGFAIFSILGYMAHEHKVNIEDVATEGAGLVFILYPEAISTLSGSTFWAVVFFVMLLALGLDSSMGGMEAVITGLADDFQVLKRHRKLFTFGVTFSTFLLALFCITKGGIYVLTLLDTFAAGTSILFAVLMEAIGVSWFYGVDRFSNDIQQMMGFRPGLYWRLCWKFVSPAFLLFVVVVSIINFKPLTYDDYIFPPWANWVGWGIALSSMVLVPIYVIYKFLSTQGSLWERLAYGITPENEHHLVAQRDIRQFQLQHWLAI

Tests used:
[1] = molecular target: human norepinephrine transporter (Homo sapiens, UniProt P23975); assay: Norepinephrine transporter binding assay ([3H]desipramine competition, MDCK cell membranes); conditions: read-out: NET Affinity; competition with [3H]desipramine 2 nM, 2 h on ice
Procedure: Individual inhibitors were dissolved in incubation buffer (50 mM Tris-HCl, 10% sucrose, pH 7.4) at appropriate dilutions. The inhibitor solutions were added to the wells of a microtiter plate (40 μL/well) in triplicate. Each well of test agent (and appropriate control wells) was treated with a mixture of MDCK cell membrane preparation (22.4 μg of membrane) expressing human norepinephrine transporter (Bmax=3.7 pmol norepinephrine transporter/mg protein), and [^3H]desipramine (2 nM, 64.8 Ci/mmol) in a total volume of 0.2 mL. The resulting mixtures were incubated for 2 h on ice.
A 96 well GF/C filter plate was presoaked with coating buffer (0.5% polyvinylpyrrolidine and 0.1% Tween 20) for 2 h at room temperature, then washed with incubation buffer (6×0.2 mL). The competition reactions were transferred to the coated plate and filtered. The filter plate was washed (6×0.2 mL) with ice cold wash buffer (50 mM Tris-HCl, 0.9% NaCl, pH 7.4) then dried overnight and treated with 25 μL scintillation fluid for analysis on a plate reader (Microbeta TriLux 1450 LSC and Luminescence counter, Perkin Elmer, Shelton Conn.).

PC-12 cells = assay: PC-12 binding assay (cell uptake with or without desipramine); conditions: 0.1 μCi test agent, 60 min at 37° C.; for PC-12 (% bound) Block: with 1 μM desipramine (nonspecific uptake); for PC-12 (% bound) Control: without desipramine (total uptake)
Procedure: Rat pheochromocytoma cell line (PC-12) were purchased from the American Type Culture Collection (ATCC) then cultured in collagen-coated flasks (BD Bio Coat Collagen Type 1, BD Biosciences) using a growth media composed of F-12 K media, 2 mM L-glutamine, 15% horse serum, 2.5% fetal bovine serum (FBS) and 1% penicillin-streptomycin.
Prepared PC-12 cells were seeded into 6-well plates at a density of 1×10^6 cells/well with 2 mL of growth media and maintained 24 h at 37° C. under a 5% CO2 atmosphere. The media was exchanged and each well treated with 0.1 μCi test agent, with or without 1 μM desipramine. The resulting mixture was incubated for 60 min at 37° C. and 5% CO2 then centrifuged at 500×g for 3 min and washed with PBS buffer. Radioactivity associated with the cells was then measured, and total uptake determined in the wells without desipramine; nonspecific uptake was measured in the associated wells containing desipramine. The specific NET mediated cell uptake is calculated as percent total uptake minus percent nonspecific uptake.

[2] = Tissue distribution in rabbits; conditions: bolus iv injection
Procedure: (§1) Male Sprague Dawley rats (300-500 g, Taconic), and male New Zealand rabbits (3-4 kg, Covance) were used in accordance with our Institutional Animal Care and Use Committee. Rats were anesthetized with sodium pentobarbital (50 mg/kg, i.p.) and the left femoral vein cannulated with PESO tubing for drug injection. Rabbits were pre-sedated with acepromazine (0.75 mg/kg i.m.) then anesthetized with ketamine (40 mg/kg, i.m.) and xylazine (8 mg/kg, i.m); the marginal ear vein was cannulated for drug injection. Additional doses of anesthetics were given as needed.
(§2) After preparation, each animal received a bolus injection of the test agent via the venous catheter. Rats and rabbits were euthanized after the injection and samples of the blood, heart, lung, liver, spleen, kidney, femur and muscle were collected. All samples were weighed and counted for radioactivity (Wallac Wizard 1480, PerkinElmer Life and Analytical Sciences, Shelton, Conn.); net radioactivity administered in each animal was determined by subtracting the residual activity in both the syringe and venous catheter. Tissue uptake of each agent was determined as a percentage of the injected dose per gram tissue (% ID/g).

[3] = Tissue distribution in rats; conditions: bolus iv injection
Procedure: as §1, §2

N=C(N)NCc1ccc(NC(=O)CF)c(O)c1
Ki [1]: > 73.5 µM

N#Cc1cc(CNC(=N)N)ccc1OCCF
Ki [1]: > 73.5 µM

C=Cc1cn(Cc2cccc(Cl)c2)nn1
Ki [1]: 32.1 µM

C[N+]1(C)CCN(c2ccc(OCCF)cc2)CC1
Ki [1]: > 73.5 µM

N=C(N)Nc1ccc(OCCF)c(Cl)c1
Ki [1]: 59.2 µM

N=C1N(CCF)CCN1Cc1cccc(Br)c1
PC-12 (% bound) Block (PC-12 cells): 3.30 % bound
PC-12 (% bound) Control (PC-12 cells): 3.90 % bound
Ki [1]: 3.07 µM

N=C(N)NCCc1cn(CCF)c2ccc(O)cc12
PC-12 (% bound) Block (PC-12 cells): 0.10 % bound
PC-12 (% bound) Control (PC-12 cells): 0.10 % bound
Ki [1]: 2.06 µM

N=C(N)N/N=C/c1ccc(OCCF)c(Br)c1
Ki [1]: 1.55 µM

C[N+]1(CCF)CCN(c2ccc(F)cc2)CC1
Ki [1]: 70.7 µM

FCCOc1ccc(CCNc2nc3ccccc3[nH]2)cc1Cl
Ki [1]: 2.01 µM

N=C(CF)NCc1cccc(Br)c1
PC-12 (% bound) Block (PC-12 cells): 0.90 % bound
PC-12 (% bound) Control (PC-12 cells): 2.10 % bound
Ki [1]: 4.86 µM

CCc1ccc(CNC(=N)N)cc1
PC-12 (% bound) Block (PC-12 cells): 0.70 % bound
PC-12 (% bound) Control (PC-12 cells): 2.40 % bound
Ki [1]: 7.91 µM

FCCOc1ccc(CCNc2ncccn2)cc1Cl
Ki [1]: 115 µM

CN1CCN(C(=N)NCc2ccc(OCCF)c(Br)c2)CC1
Ki [1]: > 73.5 µM

N=C(CF)NCc1cccc(C(F)(F)F)c1
Ki [1]: > 73.5 µM

N=C(N)N/C=C/c1ccc(OCCF)cc1
Ki [1]: 4.1 µM

N=C(CF)NCc1cccc(Cl)c1
PC-12 (% bound) Block (PC-12 cells): 0.50 % bound
PC-12 (% bound) Control (PC-12 cells): 1.40 % bound
Ki [1]: 6.42 µM

N=C(N)NCCNc1ccc(OCCF)cc1
PC-12 (% bound) Block (PC-12 cells): 2.20 % bound
PC-12 (% bound) Control (PC-12 cells): 12.20 % bound
Ki [1]: 10.3 µM

NCCc1c[nH]c2ccc(OCCF)cc12
PC-12 (% bound) Block (PC-12 cells): 0.00 % bound
PC-12 (% bound) Control (PC-12 cells): 0.00 % bound
Ki [1]: 19 µM

OCCc1cn(Cc2cccc(Cl)c2)nn1
Ki [1]: > 73.5 µM

N=C(N)NCc1ccc(CCCF)c(Br)c1
Rabbit Blood ([2]; blood): 0.013 % ID/g
Rabbit Heart ([2]; heart): 0.066 % ID/g
Rabbit Liver ([2]; liver): 0.021 % ID/g
Rabbit Lung ([2]; lung): 0.078 % ID/g
PC-12 (% bound) Block (PC-12 cells): 0.70 % bound
PC-12 (% bound) Control (PC-12 cells): 1.40 % bound
Rat Blood ([3]; blood): 0.11 ± 0.02 % ID/g
Rat Heart ([3]; heart): 1.60 ± 0.13 % ID/g
Rat Liver ([3]; liver): 0.30 ± 0.12 % ID/g
Rat Lung ([3]; lung): 0.80 ± 0.09 % ID/g
Ki [1]: 10 µM

N=C(N)NOCc1ccc(OCCF)c(Br)c1
PC-12 (% bound) Block (PC-12 cells): 0.10 % bound
PC-12 (% bound) Control (PC-12 cells): 0.10 % bound
Ki [1]: 7.89 µM

FCCOc1ccc(CCNc2nccs2)cc1Cl
Ki [1]: 13 µM
